Data: BindingDB's records for doi:10.1016/s0165-6147(97)01043-2 (Roche Bioscience, 1997)

Chains of the proteins cited; added tags and fusions are not shown.
UniProt P32305, whole entry: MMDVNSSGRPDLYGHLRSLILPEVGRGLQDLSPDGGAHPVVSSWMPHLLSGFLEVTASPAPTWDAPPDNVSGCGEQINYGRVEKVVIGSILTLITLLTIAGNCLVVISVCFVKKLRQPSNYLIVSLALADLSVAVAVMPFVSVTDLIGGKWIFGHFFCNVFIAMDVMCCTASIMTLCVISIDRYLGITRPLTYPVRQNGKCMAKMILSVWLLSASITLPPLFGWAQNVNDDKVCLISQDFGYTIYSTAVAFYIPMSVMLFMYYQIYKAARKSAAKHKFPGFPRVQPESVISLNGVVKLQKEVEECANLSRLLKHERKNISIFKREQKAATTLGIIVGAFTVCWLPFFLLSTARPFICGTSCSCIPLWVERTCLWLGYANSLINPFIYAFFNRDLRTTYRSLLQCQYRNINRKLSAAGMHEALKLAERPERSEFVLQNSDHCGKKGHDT
UniProt P34969, whole entry: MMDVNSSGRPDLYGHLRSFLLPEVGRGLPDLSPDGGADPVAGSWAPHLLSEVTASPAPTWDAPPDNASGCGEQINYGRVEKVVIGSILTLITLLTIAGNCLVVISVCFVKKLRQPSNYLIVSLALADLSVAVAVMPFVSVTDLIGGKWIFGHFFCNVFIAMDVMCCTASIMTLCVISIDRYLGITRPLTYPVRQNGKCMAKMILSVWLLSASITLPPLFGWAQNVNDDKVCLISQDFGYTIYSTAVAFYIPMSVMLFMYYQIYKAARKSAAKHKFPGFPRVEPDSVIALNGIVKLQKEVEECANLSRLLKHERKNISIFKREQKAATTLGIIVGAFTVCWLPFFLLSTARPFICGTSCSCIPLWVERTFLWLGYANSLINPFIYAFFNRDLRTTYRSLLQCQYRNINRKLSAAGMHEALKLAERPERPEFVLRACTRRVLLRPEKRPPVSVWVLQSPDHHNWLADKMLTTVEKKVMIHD

Key:
[1] = molecular target: 5-hydroxytryptamine receptor 7 (Rattus norvegicus, UniProt P32305)
[2] = molecular target: 5-hydroxytryptamine receptor 7 (Homo sapiens, UniProt P34969)

SMILES | Ki [1] [nM] | Ki [2]
CCCN(CCC)C1CCc2cccc(O)c2C1 (centres undefined) | 50.1 | 501 nM and 126 nM
CCN(CC)C(=O)[C@@H]1C=C2c3cccc4[nH]cc(c34)C[C@H]2N(C)C1 [(4R,7R)-N,N-diethyl-6-methyl-6,11-diazatetracyclo[7.6.1.0^{2,7}.0^{12,16}]hexadeca-1(16),2,9,12,14-pentaene-4-carboxamide] | 10 | 
COc1ccc2[nH]cc(CCN)c2c1 [tryptamine, 5-Methoxy] | 1.58 | 

Where “and” joins values, the source holds several entries; their conditions need not be identical. Equal entries are not always repeated.
